Screening data (PubChem BioAssay)
Nrf2 activator = activates Nrf2 signaling. AREc32 ARE-luciferase reporter (MCF7-derived line), luminescence, 24 h. Potency, µM (top dose mostly 46.1 µM), without a hit: at the top dose activation, usual class: activators. actives 0.31% (n = 410,000); note: potency is the fitted concentration of half-maximal effect; % of control where 0% means no effect; nearly all actives have a fitted effect of over 65% in size
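AREc32_Fluc, 1000 cells/well, OPTI-MEM + 5% FBS, o/n 37 deg C 5% CO2; 23 nL cpd by pin tool, 24 hr; Steady-Glo 30 min RT, luminescence.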
Nrf2 block = Nrf2 pathway inhibition; A549 ARE-Fluc reporter, luciferase luminescence, 18-24 h; AID 504444; actives 2.1% (n = 360,000); Potency, µM (titrated, usually from 46 µM), for the others: top-dose activity change, negative = inhibition, hits mostly inhibitors; note: potency is the fitted concentration of half-maximal effect; % is set by controls: 0 for no effect and ±100 for the full control effect; nearly all actives have a fitted effect of over 60% in size
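Reporter: ARE-Fluc in A549. Exposure: 18-24 h, 37 °C, 5% CO2, 5% FBS OPTI-MEM. Readouts: fluorescent cytotoxicity (CellTiter-Fluor), then luminescent Nrf2 signal after BugLite.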
miR-21 reporter = miR-21 reporter, rising signal; Potency, µM (top dose mostly 38.3 µM), for the others: at the highest dose reporter change, positive = more light; 340,000 tested, under 10 active; HeLa miR-21 FLuc reporter, luciferase, 48 h; active = well fitted rising curve with a large enough effect; inconclusive = small, poorly fitted or top-dose-only effect; inactive = no such curve, though single readings can be large or run the other way;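 note: % of control where 0% means no effect; miR-21 action dims this reporter so a rising signal means less miR-21 action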
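Compounds were titrated across several concentrations (up to approximately 40 uM) and incubated 48 hours with HeLa miR-21-FLuc reporter cells (miR-21 target sequence downstream of FLuc, endogenous miR-21). Readout was firefly luciferase luminescence after lytic detection reagent.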
ClpP mod = qHTS Assay for Activators of ClpP. purified B. subtilis ClpP, FRET peptide cleavage, 20 min. actives 1.9% (n = 340,000). AID 651965, 2013. Potency, µM (highest dose often 57.5 µM), for the others: at the top dose activity change, negative = active. ATP-dependent Clp protease proteolytic subunit (Bacillus subtilis (strain 168)), P80244; active = well fitted falling curve with a large enough effect; inconclusive = small, poorly fitted or top-dose-only effect; inactive = no such curve, though single readings can be large or run the other way; note: potency is the fitted concentration of half-maximal effect; the source files actives as falling curves though it sought activators and does not explain the sign; nearly all actives have a fitted effect of over 65% in size
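FRET quenching reversal measured ClpP activation: 10 microg/mL B. subtilis ClpP at pH 8 with the FRET-FV decapeptide, read at 430 nm after 320 nm excitation. The 20-min minus 0-min signal was scaled between DMSO/no-enzyme wells and ADEP (5.8 microM final).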
A549 tox = A549 cytotoxicity, counter-screen for Nrf2 inhibitors; A549 ARE-Fluc cells, CellTiter-Fluor viability, 18-24 h; actives 0.16% (n = 390,000); AID 504648; Potency, µM (titrated, usually from 46 µM), without a hit: at the top dose activity change, negative = cytotoxicity, actives largely listed as inhibitors; note: potency is the fitted concentration of half-maximal effect; % is set by controls: 0 for no effect and ±100 for the full control effect
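A549 ARE-Fluc cells in 5% FBS OPTI-MEM, 5000 cells/well, rested 2 h then exposed to compounds in concentration-response for 18-24 h at 37 °C. Viability by CellTiter-Fluor fluorescence (Ex 405/Em 525) after 30 min; luciferase luminescence (BugLite, 15 min, RT) read afterwards.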
TCR act = activators of T cell receptors. primary human leukocytes, anti-CD3, IL-2 HTRF, 48 h. Potency, µM (highest dose often 9.22 µM), inactives show at the highest dose activation of IL-2 secretion, usual class: activators. 330,000 tested, under 10 active; note: % of control where 0% means no effect
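TCR engagement came from a-CD3 beads alone, with compounds added to primary human leukocytes for 48 hr. Secreted IL-2 bridged europium cryptate- and d2-labelled anti-IL-2 antibodies, giving FRET emission at 665nm after 320nm excitation.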
* marks the source's active call; other numbers are inactive results; [ ] = another dose, or the depositor's remark. Sampled rows, rich in hits. Any-hit rate of the full collection: about 3.7%. Unless noted, calls come from the whole dose curve; as a rule, active = well fitted curve in the direction sought with a large enough effect; inconclusive = small, poorly fitted or top-dose-only effect, or another doubt; inactive = no such curve, though single readings can be large; an effect the other way counts as inactive or inconclusive.

Screening O=C(NCc1cccnc1)c1ccc(COc2ccc(Cl)cc2)cc1 returned Nrf2 activator 3.2%, Nrf2 block 23.1µM*, miR-21 reporter 10.9%, ClpP mod -1.4%, A549 tox -7.2% and TCR act -7.7%.
Screening COc1cc(-c2nnc(SCC(=O)N3CCCc4ccccc43)o2)cc(OC)c1OC returned Nrf2 activator 8.7%, Nrf2 block inconclusive, miR-21 reporter 10.2%, ClpP mod -1.5% and A549 tox 0.2%.
C[C@H]1CN([C@@H](C)CO)C(=O)c2cc(Br)cnc2O[C@@H]1CN(C)C(=O)c1ccncc1 was read as Nrf2 activator -1.4% and ClpP mod -2.9%.
Screening CC(=O)Oc1c(Cl)cc(N(C(C)=O)S(=O)(=O)c2ccccc2)c2ccccc12 returned Nrf2 activator 16.3%, Nrf2 block -14.8%, ClpP mod 1.2%, A549 tox inconclusive and TCR act -3.7%.
For COC(=O)/C(=C\c1cccnc1)NC(=O)c1ccc(OCc2ccccc2)cc1 the results were Nrf2 activator 0.4%, Nrf2 block 16.4µM*, miR-21 reporter 5.3%, ClpP mod -1.1%, A549 tox -2.4% and TCR act -2.6%.
COc1cc(OC)c(OC)cc1CNC(=O)c1ccc(COc2ccccc2)cc1 was read as Nrf2 activator 1.0%, Nrf2 block 16.4µM*, miR-21 reporter -0.5%, A549 tox -12.4% and TCR act -2.9%.
For O=S(=O)(c1ccc(NCCOc2ccccc2)nc1)N1CCCC1 the results were Nrf2 activator -0.3%, Nrf2 block 1.8%, ClpP mod -17.6%, A549 tox 0.9% and TCR act -1.7%.
For CCC(=O)N1CCc2cc(S(=O)(=O)NC(C(=O)NCCc3ccc(Cl)cc3)C(C)C)ccc21 (centres undefined) the results were Nrf2 activator 4.3%, Nrf2 block inconclusive, miR-21 reporter -1.0%, ClpP mod 3.1% and A549 tox 7.2%.
For Nc1ccc2c(c1)C/C(=C/c1ccco1)C2=O the results were Nrf2 activator inconclusive, Nrf2 block inconclusive, miR-21 reporter -37.5%, ClpP mod 14.1µM*, A549 tox 3.4% and TCR act -4.6%[46.1 µM].
`CN1CCc2[nH]c3ccc(Cl)cc3c2C1` gave Nrf2 block 3.9%, ClpP mod -5.5% and A549 tox -2.8%.
`COc1ccc2cc3c(N)nn(C(=O)c4ccccc4[N+](=O)[O-])c3nc2c1` gave Nrf2 activator 0.3%, Nrf2 block inconclusive, miR-21 reporter 28.7%, ClpP mod 28.2µM*, A549 tox -19.1% and TCR act -4.5%[46.1 µM].
Screening COc1ccc2cc3c(N)nn(C(=O)c4ccc(Cl)c([N+](=O)[O-])c4)c3nc2c1 returned Nrf2 activator -0.3%, Nrf2 block -1.1%, miR-21 reporter 10.3%, ClpP mod 1.7%, A549 tox -5.1% and TCR act -2.6%[46.1 µM].
Cc1ccc(-c2cc(-c3nnc(SCC(=O)N(C)CCC#N)n3N)c3ccccc3n2)cc1 was read as Nrf2 activator -0.5%, Nrf2 block -4.1%, miR-21 reporter -14.4%, ClpP mod 15.8µM*, A549 tox -7.2% and TCR act -5.3%.
COc1ccc(CNC(=O)COC(=O)c2cc(-c3ccc(Cl)s3)nc3ccccc23)cc1 was read as Nrf2 activator 0.0%, Nrf2 block inconclusive, miR-21 reporter 12.9%, ClpP mod 25.1µM*, A549 tox -12.7% and TCR act 10.6%.
For COc1cccc(CNC(=O)c2cc(-c3ccc(Cl)s3)nc3ccccc23)c1 the results were Nrf2 activator 0.1%, Nrf2 block -4.1%, miR-21 reporter 0.0%, ClpP mod 3.16µM* and A549 tox -2.1%.
Screening CCOc1ccccc1CNC(=O)c1cc(-c2ccc(Cl)s2)nc2ccccc12 returned Nrf2 activator -0.6%, Nrf2 block -0.8%, miR-21 reporter -4.8%, ClpP mod 28.2µM* and A549 tox -4.9%.
For COc1cccc(CNC(=O)c2cc(-c3cccs3)nc3ccccc23)c1 the results were Nrf2 activator 6.0%, Nrf2 block 7.8%, miR-21 reporter 9.9%, ClpP mod 3.6% and A549 tox 2.7%.
CCOc1ccccc1CNC(=O)c1cc(-c2ccc(C)c(C)c2)nc2ccccc12 was read as Nrf2 activator -0.7%, miR-21 reporter 4.5%, ClpP mod 3.7% and A549 tox 1.2%.
COC(=O)C1CCN(S(=O)(=O)CCNC(=O)c2ccc3c(c2)OCO3)CC1 was read as Nrf2 activator 0.3%, Nrf2 block 5.5%, A549 tox -5.4% and TCR act 1.2%.
CCOC(=O)N1CCN(C(=O)C[C@@H]2C[C@@]3(C(=O)OC)CC(C)(C)CC=C3N(CCc3ccc(OC)c(OC)c3)C2=O)CC1 was read as ClpP mod 0.8%.
For C=C1CC(C(=O)N/N=C/c2ccc(O)cc2)C1 the results were Nrf2 activator 2.0%, Nrf2 block 5.6%, miR-21 reporter -17.4%, ClpP mod 11.2µM*, A549 tox -2.7% and TCR act 0.1%[46.1 µM].
`O=C(NN=Cc1ccc(O)cc1)C(=O)NN=Cc1ccc(O)cc1` gave Nrf2 activator 0.6%, Nrf2 block 14.7%, A549 tox -2.4% and TCR act -1.1%.
COc1cccc(NS(=O)(=O)c2ccc3c(c2)CCC(=O)N3)c1 was read as Nrf2 block inconclusive and A549 tox -2.0%.
For c1ccc2oc(CCc3nc4ccccc4o3)nc2c1 the results were Nrf2 activator 0.6%, Nrf2 block 5.4%, miR-21 reporter -21.0%, ClpP mod -2.7%, A549 tox 8.4% and TCR act 4.5%.
`c1ccc2oc(Cc3ccc(Cc4nc5ccccc5o4)cc3)nc2c1` gave Nrf2 activator -0.2%, Nrf2 block 25.9µM*, miR-21 reporter 10.7%, ClpP mod 1.3%, A549 tox -17.6% and TCR act -0.3%[46.1 µM].
COc1ccc(C(C#N)=C2C=C(Cl)C(=NO)C=C2Cl)cc1 was read as Nrf2 activator 11.2µM* and ClpP mod 1.8%.
Screening CCn1cc(S(=O)(=O)c2cc(C)cc(C)c2)c(=O)c2cc(F)c(N3CCCCC3)cc21 returned Nrf2 activator 0.3%, Nrf2 block inconclusive, miR-21 reporter 4.7%, ClpP mod inconclusive and A549 tox -13.2%.

Some of these compounds in order of SMILES length, descending.
CCOC(=O)N1CCN(C(=O)C[C@@H]2C[C@@]3(C(=O)OC)CC(C)(C)CC=C3N(CCc3ccc(OC)c(OC)c3)C2=O)CC1 was read as ClpP mod 0.8%.
Screening CCOc1ccccc1CNC(=O)c1cc(-c2ccc(Cl)s2)nc2ccccc12 returned Nrf2 activator -0.6%, Nrf2 block -0.8%, miR-21 reporter -4.8%, ClpP mod 28.2µM* and A549 tox -4.9%.
COc1cccc(NS(=O)(=O)c2ccc3c(c2)CCC(=O)N3)c1 was read as Nrf2 block inconclusive and A549 tox -2.0%.
